Tests used:
[1] = biological target: His-tagged human recombinant kinase full-length Akt1 (Homo sapiens (Human), UniProt P31749); assay: Akt1 kinase assay (TR-FRET); settings: read-out: Akt1, median IC50; 10 μM ATP
[2] = tested on: p-AKT1/2/3-S473 in KPL4 breast tumour cell line; assay: Cellular p-AKT1/2/3-S473 assay; settings: read-out: pAKT-S743 median IC50, 2 hours treatment
[3] = tested on: KPL-4 breast cancer cell line; assay: Tumor cell proliferation assay (CellTiter-Glo, 72 h), KPL-4; settings: read-out: KPL-4 proliferation IC50, 72h drug exposure

Amino acid sequences for entries named in this document (tags omitted).
UniProt P31749, whole entry: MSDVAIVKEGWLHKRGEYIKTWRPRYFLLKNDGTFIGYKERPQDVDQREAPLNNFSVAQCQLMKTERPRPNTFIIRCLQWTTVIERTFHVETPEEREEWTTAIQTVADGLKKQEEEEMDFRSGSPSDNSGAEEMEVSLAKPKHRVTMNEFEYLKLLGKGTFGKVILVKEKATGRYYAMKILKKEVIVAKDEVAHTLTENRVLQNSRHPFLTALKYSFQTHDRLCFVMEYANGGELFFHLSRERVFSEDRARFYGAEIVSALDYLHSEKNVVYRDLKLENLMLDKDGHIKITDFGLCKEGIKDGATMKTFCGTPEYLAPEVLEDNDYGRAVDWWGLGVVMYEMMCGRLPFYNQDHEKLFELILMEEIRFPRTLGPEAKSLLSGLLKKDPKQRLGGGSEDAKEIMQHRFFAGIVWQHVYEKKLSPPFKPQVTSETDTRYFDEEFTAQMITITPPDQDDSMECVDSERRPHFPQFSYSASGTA

- IC50 [1]: 2.27 µM
- IC50 [2]: 1.65 µM
- IC50 [3]: 10 µM
SMILES: NC1(c2ccc(-c3nc4cc(-n5ccccc5=O)ccn4c3-c3ccccc3)cc2)CCC1

From US8975265B2, “Substituted imidazo[1,2-a]pyrimidines and —pyridines” (Bayer Intellectual Property GmbH, priority 2010, dated 2015)
